Target: T1, bovine alpha adrenergic 1A receptor (Bos taurus, UniProt P18130)
T1 construct: expressed in transfected cells
T1 sequence (P18130 1-466): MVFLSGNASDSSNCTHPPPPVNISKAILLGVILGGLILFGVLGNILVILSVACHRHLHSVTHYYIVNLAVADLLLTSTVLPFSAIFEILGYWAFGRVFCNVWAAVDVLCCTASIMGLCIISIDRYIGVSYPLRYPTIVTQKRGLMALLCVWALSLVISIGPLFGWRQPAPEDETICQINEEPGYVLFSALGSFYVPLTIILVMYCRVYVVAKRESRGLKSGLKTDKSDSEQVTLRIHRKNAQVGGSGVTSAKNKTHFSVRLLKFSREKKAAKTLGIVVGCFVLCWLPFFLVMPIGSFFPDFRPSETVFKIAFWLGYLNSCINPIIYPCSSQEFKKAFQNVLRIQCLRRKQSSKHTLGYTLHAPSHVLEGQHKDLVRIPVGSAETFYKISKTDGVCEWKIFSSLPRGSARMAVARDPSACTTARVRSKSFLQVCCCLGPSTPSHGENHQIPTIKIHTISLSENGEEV
Test: FLIPR calcium assay, HEK293 cells stably expressing bovine alpha 1A receptor
Format: cell-based
Description: An in vitro FLIPR (fluorometric image plate reader) assay was performed on several compounds, including the compound of Formula I (entry 1 in Table 1).
Specifically, four HEK293 stable cell lines were used in the FLIPR assay. The HEK293 cell line which stably expressed the bovine alpha adrenergic 1A receptor was used to characterize the alpha1 pharmacology. The alpha-2 adrenergic receptor family is a G coupled G-protein receptor. Therefore, in order to use these cell lines in the calcium based FLIPR assay, the chimeric G-protein Gqi5 was used to force the coupling of the human alpha-2A, alpha-2B, and alpha-2C receptors to the calcium pathway. […]
The receptor activation was initiated by the addition of the appropriate dilutions of compounds and the transient calcium signal was captured. The peak height of the calcium curve was determined and utilized for calculation of EC50 and relative efficacy values using Activity Base software. EC50 was calculated using a 4 Parameter Logistic Equation: y=A+((B−A)/(1+((C/x)^D))) where A and B represents the bottom and top plateau of the curve; C represents the EC50 value; D represents the slope factor; and x and y represent the original x (drug concentration) and y (fluorescence signal, RFU) values.

SMILES | EC50 [nM]
CCc1c(N=C2NCCN2)ccc2[nH]cnc12 [Compound 2] | 1650
Brc1c(N=C2NCCN2)ccc2[nH]cnc12 [Compound 3] | 1000

Reference: patent US20240335425A1, “PHARMACEUTICAL COMPOSITIONS OF ALPHA-2-ADRENERGIC RECEPTOR AGONISTS AND THEIR USE FOR IMPROVING VISION” (Allergan, Inc., priority 2020, published 2024)
